Each structure is given as a SMILES string.

Broadly, the IC50 is the concentration that inhibits the measured activity by half.

This test concerns the target T1, C5a anaphylatoxin chemotactic receptor 1 (Homo sapiens, UniProt P21730).
T1 sequence (P21730 whole entry): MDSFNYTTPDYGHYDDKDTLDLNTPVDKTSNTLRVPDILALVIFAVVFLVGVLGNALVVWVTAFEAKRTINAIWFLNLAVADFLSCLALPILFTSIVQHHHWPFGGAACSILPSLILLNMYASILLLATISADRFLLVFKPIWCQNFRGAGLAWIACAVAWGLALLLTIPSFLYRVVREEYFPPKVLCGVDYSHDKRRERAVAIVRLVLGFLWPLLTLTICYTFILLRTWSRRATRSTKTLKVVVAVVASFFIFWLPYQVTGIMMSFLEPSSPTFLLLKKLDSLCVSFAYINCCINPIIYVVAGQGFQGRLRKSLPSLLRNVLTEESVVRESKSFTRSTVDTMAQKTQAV
Briefly: Antagonist activity at human recombinant C5a receptor in U937 cells assessed as inhibition of C5a-induced calcium mobilization by FLIPR assay. The format is functional, cell-based, U-937. (In general: A change in cytosolic calcium serves as a functional read-out for many receptors and channels.)

Turning to `CCc1cccc(CC)c1-c1cc(OC)c2c(n1)CCCC2Nc1ccccc1C(F)(F)F` (stereo unspecified), the concentration for half-maximal inhibition (IC50) was over 10 µM.
